# Columns and labels:
# Amino acid sequences for entries named in this document (tags omitted).
# UniProt P35372, whole entry, looked up: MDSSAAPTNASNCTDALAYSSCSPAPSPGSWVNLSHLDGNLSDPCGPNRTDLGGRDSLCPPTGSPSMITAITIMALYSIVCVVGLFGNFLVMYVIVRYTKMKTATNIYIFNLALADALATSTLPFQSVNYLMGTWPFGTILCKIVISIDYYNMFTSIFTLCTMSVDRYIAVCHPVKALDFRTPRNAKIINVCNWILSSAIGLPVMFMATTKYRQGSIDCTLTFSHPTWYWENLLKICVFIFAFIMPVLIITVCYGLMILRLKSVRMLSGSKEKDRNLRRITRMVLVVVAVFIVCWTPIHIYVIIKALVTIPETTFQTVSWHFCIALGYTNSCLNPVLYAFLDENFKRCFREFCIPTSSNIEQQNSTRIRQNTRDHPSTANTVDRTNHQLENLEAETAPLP
# UniProt P41143, whole entry, looked up: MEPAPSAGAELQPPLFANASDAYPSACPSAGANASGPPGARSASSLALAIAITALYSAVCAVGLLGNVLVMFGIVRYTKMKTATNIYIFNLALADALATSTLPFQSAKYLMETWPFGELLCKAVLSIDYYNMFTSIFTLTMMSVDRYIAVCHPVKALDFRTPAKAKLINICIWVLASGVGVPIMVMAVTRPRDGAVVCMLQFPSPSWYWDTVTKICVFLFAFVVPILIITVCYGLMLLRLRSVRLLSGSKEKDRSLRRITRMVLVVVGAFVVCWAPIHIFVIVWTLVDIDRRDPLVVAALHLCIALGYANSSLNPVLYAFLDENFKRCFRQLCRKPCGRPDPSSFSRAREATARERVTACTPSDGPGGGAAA
# Mu-type opioid receptor = Mu-type opioid receptor (Homo sapiens, UniProt P35372); assay: Binding affinity to mu-opioid receptor (unknown origin)
# [1] = biological target: Delta-type opioid receptor (Homo sapiens, UniProt P41143); assay: Binding affinity to delta-opioid receptor (unknown origin)
smiles,measurement,setting,value
CN(C(=O)Cc1ccc(Cl)c(Cl)c1)[C@@H]1CCCC[C@H]1N1CCCC1,Ki,Mu-type opioid receptor,1400 nM
same,Ki,[1],> 5000 nM

# — ChEMBL document CHEMBL5620418
